According to publication PMC7723054:
The list shows a part of the results.

T1: LIN28A (human?, UniProt Q9H9Z2 1-209)
T1 sequence: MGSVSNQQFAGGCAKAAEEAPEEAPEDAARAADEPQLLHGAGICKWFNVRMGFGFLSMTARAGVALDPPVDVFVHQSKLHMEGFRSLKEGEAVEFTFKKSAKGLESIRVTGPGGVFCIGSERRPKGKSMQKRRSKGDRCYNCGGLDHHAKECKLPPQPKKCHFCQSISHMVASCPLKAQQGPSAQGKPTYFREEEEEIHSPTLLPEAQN

T2: CIRBP (Homo sapiens, UniProt Q14011 1-172)
T2 sequence: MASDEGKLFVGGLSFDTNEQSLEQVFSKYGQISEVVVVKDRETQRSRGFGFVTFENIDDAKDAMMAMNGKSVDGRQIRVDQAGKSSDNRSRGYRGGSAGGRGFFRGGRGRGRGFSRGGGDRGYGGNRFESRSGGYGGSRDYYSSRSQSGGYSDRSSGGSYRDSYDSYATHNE

T3: DHX36 (Homo sapiens, UniProt Q9H2U1 1-1008)
T3 sequence: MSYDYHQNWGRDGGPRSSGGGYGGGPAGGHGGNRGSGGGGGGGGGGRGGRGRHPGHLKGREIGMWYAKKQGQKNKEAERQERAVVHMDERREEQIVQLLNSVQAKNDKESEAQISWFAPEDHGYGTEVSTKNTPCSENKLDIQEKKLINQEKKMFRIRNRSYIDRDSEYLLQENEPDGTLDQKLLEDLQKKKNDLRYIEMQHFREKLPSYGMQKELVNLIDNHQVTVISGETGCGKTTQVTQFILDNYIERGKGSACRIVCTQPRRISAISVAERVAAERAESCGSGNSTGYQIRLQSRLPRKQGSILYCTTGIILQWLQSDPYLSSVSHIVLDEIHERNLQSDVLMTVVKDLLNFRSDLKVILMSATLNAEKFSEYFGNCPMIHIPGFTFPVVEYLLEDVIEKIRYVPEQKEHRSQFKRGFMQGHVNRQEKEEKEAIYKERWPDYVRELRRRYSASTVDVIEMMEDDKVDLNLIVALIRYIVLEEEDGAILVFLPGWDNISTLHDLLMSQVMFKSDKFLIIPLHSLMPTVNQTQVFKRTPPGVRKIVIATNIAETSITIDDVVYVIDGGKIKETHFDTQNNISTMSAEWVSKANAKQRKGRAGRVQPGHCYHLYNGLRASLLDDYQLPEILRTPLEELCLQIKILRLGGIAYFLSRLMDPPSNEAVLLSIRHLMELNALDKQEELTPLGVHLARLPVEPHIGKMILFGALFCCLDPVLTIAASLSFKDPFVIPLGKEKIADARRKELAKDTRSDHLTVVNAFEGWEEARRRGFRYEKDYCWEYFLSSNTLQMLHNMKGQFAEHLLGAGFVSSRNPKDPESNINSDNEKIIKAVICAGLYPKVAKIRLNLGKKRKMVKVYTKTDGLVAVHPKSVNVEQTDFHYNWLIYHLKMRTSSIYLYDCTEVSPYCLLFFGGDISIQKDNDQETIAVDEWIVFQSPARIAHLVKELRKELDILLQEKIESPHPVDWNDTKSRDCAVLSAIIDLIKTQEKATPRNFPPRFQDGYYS

B1: hsa-mir-892c (structured_RNA)
RNA: GGGAACUUGAAAGUGACUACUCAAGCGCGGUGUACGAAGUUUCAGCAGUCACUUAGAUUACAUGUCACUGCUGAAGCUUCGUGCAC
B2: hsa-mir-548av (structured_RNA)
RNA: GGGAACGAAGAAGUACGCAAUAAAGCCAGGUGUACGAAGUUUCAGCAUUUGCCAUCACCUUUACCUUUAAUGGCAAAAGCUGAAGCUUCGUGCAC
B3: hsa-mir-4428 (structured_RNA)
RNA: GGGCCCCAAACGGAGCUAAUAGACGCUAGGUGUACGAAGUUUCAGCCUUACUGUACACGUGGCUGGCAAGGCUGAAGCUUCGUGCAC
B4: hsa-mir-4752 (structured_RNA)
RNA: GGGAAAAGUGAUGACCGACUGUUACUUGGGUGUACGAAGUUUCAGCUGCUUCCACAUAGCAGCAGCUGAAGCUUCGUGCAC
B5: hsa-mir-383 (structured_RNA)
RNA: GGGAAGAUGUGAACCAGGUGUCGAUUACGGUGUACGAAGUUUCAGCUUGUGGCUUUGGGUGGAUAUUAAUCAGCCACAGGCUGAAGCUUCGUGCAC
B6: G4_(UGGGGU)6 (structured_RNA)
RNA: GGGAGAGGAAGCCUACAAAUAGCACGAAGGUGUACGAAGUUUCAGCUGGGGUUGGGGUUGGGGUUGGGGUUGGGGUUGGGGUGCUGAAGCUUCGUGCAC
B7: hsa-mir-3622a (structured_RNA)
RNA: GGGACUAUGCGUUUGACCCAACUAGGUAGGUGUACGAAGUUUCAGCGUGAGGCAGGGAGCUGAGCUCACGCUGAAGCUUCGUGCAC
B8: hsa-mir-608 (structured_RNA)
RNA: GGGAACCACUCCUGAAACCCGGGACAUAGGUGUACGAAGUUUCAGCCCGUUUAAAAAGGCAUCUCCAAGGCUGAAGCUUCGUGCAC
B9: hsa-mir-5581 (structured_RNA)
RNA: GGGAGAAAGCAGGCCGGUGAGUAUACGAGGUGUACGAAGUUUCAGCGGAGACCCUAUACAUACCUGUUUCCGCUGAAGCUUCGUGCAC
B10: hsa-mir-8064 (structured_RNA)
RNA: GGGACGAUACGAUAUCAGCGAUUAAGCAGGUGUACGAAGUUUCAGCGGACAUCCUUCCAUAGUAAAUAAGCGGUGCCGCUGAAGCUUCGUGCAC
B11: hsa-mir-1273g (structured_RNA)
RNA: GGGAAAAGGUGUCACGAGAGAUAUGUUUGGUGUACGAAGUUUCAGCUAAGUUGUGAUCAUACCAGCUGAAGCUUCGUGCAC
B12: hsa-mir-5002 (structured_RNA)
RNA: GGGAAACUAGUAUUUCAGCCGUAUGCGAGGUGUACGAAGUUUCAGCCUUAGUAGGUGAUAGCAUGACUGACGCUGAAGCUUCGUGCAC
B13: hsa-mir-7158 (structured_RNA)
RNA: GGGAAGCACCAUGCGGAGAGAACAUCAGGGUGUACGAAGUUUCAGCGCAGCCUUCUGCCUUUGGCUUUCUGAAGCGAGCUGAGCUGAAGCUUCGUGCAC
B14: hsa-mir-7109 (structured_RNA)
RNA: GGGAAAGUCACUACACGUGUUUACGCAGGGUGUACGAAGUUUCAGCCUGCUCUCCCUGGCAGCAAGGCUGAAGCUUCGUGCAC
B15: hsa-mir-4720 (structured_RNA)
RNA: GGGAUGACCAUUGGAUAUAGCAACAAGCGGUGUACGAAGUUUCAGCACUUAAGCACCAGGUAAAAUCUGGUGCUUAAGUGCUGAAGCUUCGUGCAC
B16: hsa-mir-6852 (structured_RNA)
RNA: GGGAUAUCGCUACGAUGAAAGCUUGUACGGUGUACGAAGUUUCAGCGACAUGCUCUGACUCCCCUGAUGUCGCUGAAGCUUCGUGCAC
B17: hsa-mir-4275 (structured_RNA)
RNA: GGGAGGACUUAGAGCUCGCCAAGCAUGCGGUGUACGAAGUUUCAGCCUUUUUGCCACCUGAGCACAGUCAGCAGUCAGCAUAAAAGCUGAAGCUUCGUGCAC
B18: hsa-mir-4426 (structured_RNA)
RNA: GGGACGCCGAGCUAUGGUAAGUUCAUGCGGUGUACGAAGUUUCAGCCUUUGUCUGACUACAAUAUUCAAAAGGCUGAAGCUUCGUGCAC
B19: hsa-mir-4727 (structured_RNA)
RNA: GGGAAGGGUCUACGAUGUAUCAGAACAUGGUGUACGAAGUUUCAGCCAGUGGCAGAUUUUCCCAUAGGCUGAAGCUUCGUGCAC
B20: hsa-mir-4691 (structured_RNA)
RNA: GGGAAAUAAAGAAUGGGUAGUUUCGCACGGUGUACGAAGUUUCAGCCUGCGGCCCUGAUGUCUCUACUCCAGGCUGAAGCUUCGUGCAC
B21: hsa-mir-3134 (structured_RNA)
RNA: GGGACCACCUCCAUGUCCCAUGUCCAUCGGUGUACGAAGUUUCAGCCUCACAUGGAGUAAAAUAUGAUGCUGAAGCUUCGUGCAC
B22: hsa-let-7f-1 (structured_RNA)
RNA: GGGAAGUACCCGUAGCAAUUAUACGACUGGUGUACGAAGUUUCAGCAUAGUUGUGGGGUAGUGAUUUUACCCUGUUCAGGAGAUAACUAUGCUGAAGCUUCGUGCAC
B23: NEAT1_ParasoR_ID48 (structured_RNA)
RNA: GGGAGGUAUCCCAUCCGCCAAAUUGAUGGGUGUACGAAGUUUCAGCGUGUCUUUCUGGUAUAAUGACUUCUUUUCCUUUGGGUAGAUACGCUGAAGCUUCGUGCAC

Biological target: U1A (Homo sapiens, UniProt P09012)
Assay: FOREST: bead pull-down of RNA structure library v1, barcode microarray; U1A/LIN28A: 20 mM HEPES pH 7.5, 80 mM KCl, 20 mM NaCl, 10% glycerol, 2 mM DTT, 0.1 ug/uL BSA, 4 C; BG4/CIRBP/DHX36: 10 mM Tris-HCl pH 7.5, 100 mM KCl (or LiCl),; high values mean tight binding

Binder	binding signal [z-score]
B1	0.369
B2	0.366
B3	0.366
B4	0.362
B5	0.362
B6	1.92
B7	0.359
B8	0.358
B9	0.357
B10	0.356
B11	0.356
B12	0.354
B13	0.351
B14	0.349
B15	0.344
B16	0.344
B17	1.92
B18	0.342
B19	0.341
B20	0.34
B21	0.34
B22	0.339
B23	0.338

Biological target: T1, LIN28A
Assay: as above

Binder	binding signal [z-score]
B1	0.882
B2	-0.0998
B3	-1.45
B4	-0.749
B5	1.59
B6	1.4
B7	-0.698
B8	1.33
B9	-0.285
B10	-0.391
B11	1.52
B12	2.5
B13	-1.53
B14	-1.67
B15	-0.135
B16	0.0776
B17	-1.1
B18	-0.504
B19	0.444
B20	0.976
B21	1.22
B22	3.89
B23	-0.052

Biological target: T2, CIRBP
Assay: as above

Binder	binding signal [z-score]
B1	0.938
B2	1.3
B3	-0.813
B4	0.5
B5	1.71
B6	4.5
B7	-0.735
B8	1.46
B9	-0.628
B10	0.217
B11	0.824
B12	0.124
B13	-0.693
B14	-1.08
B15	1.03
B16	0.116
B17	-1.32
B18	-0.402
B19	-1.19
B20	-0.0212
B21	1.88
B22	0.0327
B23	-0.127

Biological target: T3, DHX36
Assay: as above

Binder	binding signal [z-score]
B1	-0.208
B2	0.339
B3	-1.26
B4	0.402
B5	0.837
B6	7.76
B7	0.298
B8	-0.192
B9	-0.456
B10	-0.249
B11	-0.327
B12	-0.537
B13	-0.376
B14	0.561
B15	-0.0294
B16	-0.347
B17	0.15
B18	-1.06
B19	-0.747
B20	0.919
B21	-0.217
B22	0.113
B23	-1.12
